In BindingDB's records for 23618710 (National Institute On Drug Abuse and The National Institute …, 2013) one finds Ki data, which are given here for 1 compound.

Chains of the proteins cited; added tags and fusions are not shown.
UniProt P41143, whole entry, looked up: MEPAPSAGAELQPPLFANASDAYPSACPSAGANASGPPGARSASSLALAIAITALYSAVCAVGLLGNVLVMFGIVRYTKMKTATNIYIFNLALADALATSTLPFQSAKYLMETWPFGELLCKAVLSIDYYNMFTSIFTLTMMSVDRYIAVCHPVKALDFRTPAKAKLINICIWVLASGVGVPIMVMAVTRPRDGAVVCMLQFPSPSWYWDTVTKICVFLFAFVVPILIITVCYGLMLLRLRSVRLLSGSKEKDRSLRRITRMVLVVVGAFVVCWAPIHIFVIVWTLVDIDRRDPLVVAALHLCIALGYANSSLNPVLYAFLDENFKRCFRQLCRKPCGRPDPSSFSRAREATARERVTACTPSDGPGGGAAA

The structures appear in SMILES notation.

The experiment addresses Delta-type opioid receptor (Homo sapiens, UniProt P41143). Briefly: Displacement of [3H]DADLE from human recombinant delta opioid receptor expressed in CHO cell membranes after 2 hrs by liquid scintillation counting analysis.

Consider `C=CCN1CC[C@@]2(CCc3ccccc3)c3cc(O)ccc3O[C@H]2C1`, for which the Ki turned out to be 55 nM.
